# High-throughput results from PubChem BioAssay.
# An excerpt weighted towards active compounds, which were near 16% of everything screened.
# TDP1 block – TDP1 (human) enzyme inhibition. Q9NUW8. recombinant TDP1, AlphaScreen DNA substrate cleavage. Potency, µM (top dose mostly 130 µM), for inactives: top-dose activity change, negative = inhibition, actives largely listed as inhibitors. 350,000 compounds, 0.28% hits; also: potency is read from the fitted curve at half-maximal effect; % is scaled to controls: 0 for no effect and ±100 for the full control effect; nearly all actives have a fitted effect of over 40% in size
#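 E. coli-derived human Tdp1, 1 nM final. Cpd preinc 15 min RT; substrate 15 nM final, 5 min RT; AS bead mix 10 ug/ml final, 10 min RT. Signal loss = tyrosine-FITC cleavage. No-enzyme wells = max signal.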
# DT40 TDP1 CPT – DT40-hTDP1 cell growth loss with CPT. chicken DT40 Tdp1-/-;hTDP1 cells + 20 nM CPT, ATP luminescence, 48 h. Potency, µM (titrated, usually from 46.2 µM), without a hit: top-dose activity change, negative = growth inhibition, hits mostly inhibitors. AID 686979. 420,000 compounds, 12% hits; also: potency is read from the fitted curve at half-maximal effect; % is scaled to controls: 0 for no effect and ±100 for the full control effect; nearly all actives have a fitted effect of over 55% in size
#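 Chicken DT40 Tdp1-/- cells stably complemented with human TDP1 were seeded at 400 cells/well in medium containing 20 nM camptothecin, exposed to pin-transferred compounds, and grown at 37 °C for at least 48 hr. Viability was read as ATP luminescence.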
# uPA generation – cell surface uPA generation inhibition; cell surface uPA generation assay, qHTS; Potency, µM (top dose mostly 38.3 µM), for the others: top-dose activity change, negative = inhibition, actives largely listed as inhibitors; 330,000 compounds, 0.31% hits; AID 540303; active = well fitted inhibition curve with a large enough effect; inconclusive = small, poorly fitted or top-dose-only effect; inactive = no such curve, though single readings can be large or run the other way; tested in mouse RAW 264.7 cells; also: potency is read from the fitted curve at half-maximal effect; % is scaled to controls: 0 for no effect and ±100 for the full control effect; nearly all actives have a fitted effect of over 55% in size
# DT40 TDP1 no CPT – qHTS for Inhibitors of human tyrosyl-DNA phosphodiesterase 1 (TDP1): qHTS in cells in absence of CPT; DT40 Tdp1-/- hTDP1 cells, no CPT, ATP luminescence, 48 h; Potency, µM (titrated, usually from 46.2 µM), for inactives: top-dose activity change, negative = growth inhibition, actives largely listed as inhibitors; 420,000 compounds, 15% hits; AID 686978, 2013; also: potency is read from the fitted curve at half-maximal effect; % is scaled to controls: 0 for no effect and ±100 for the full control effect; nearly all actives have a fitted effect of over 55% in size
#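 Chicken DT40 Tdp1-/- cells stably complemented with human TDP1 were seeded at 400 cells/well with DMSO in place of 20 nM camptothecin. After compound pinning, cells grew at least 48 hr at 37 °C; viability read by CellTiter-Glo luminescence.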
# miR-21 reporter – miR-21 reporter, rising signal; HeLa miR-21 FLuc reporter, luciferase, 48 h; Potency, µM (top dose mostly 38.3 µM), without a hit: at the highest dose reporter change, positive = more light; 340,000 tested, under 10 active; active = well fitted rising curve with a large enough effect; inconclusive = small, poorly fitted or top-dose-only effect; inactive = no such curve, though single readings can be large or run the other way;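 further: % of control where 0% means no effect; miR-21 action dims this reporter so a rising signal means less miR-21 action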
#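 HeLa miR-21-FLuc reporter line, endogenous miR-21; 2000 cells/well in DMEM/10% FBS; compound titration up to ~40uM final, 48 h, 37 degree Celsius; luciferase detection reagent, 15 min lysis, CCD luminescence.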
# An asterisk follows results filed as active; ? = inconclusive; . = no result. Unless noted, calls follow the shape of the dose curve; as a rule, active = well fitted curve in the direction sought with a large enough effect; inconclusive = small, poorly fitted or top-dose-only effect, or another doubt; inactive = no such curve, though single readings can be large; an effect the other way counts as inactive or inconclusive.
[1] O=C(Nc1nnc(-c2ccco2)o1)c1ccc(Cl)cc1
[2] Cc1ccccc1C(=O)Nc1nnc(-c2ccncc2)o1
[3] O=C(COc1ccccc1)Nc1nnc(-c2ccc(Cl)cc2)o1
[4] O=C(CNC(=O)c1ccccc1)OCC(=O)c1ccc2ccccc2c1
[5] COCCN(C(=O)COC(=O)/C=C/c1ccccc1Cl)c1c(N)n(Cc2ccccc2)c(=O)[nH]c1=O
[6] CCCCOC(=O)c1ccccc1N1C(=O)C2C3CCC(C3)C2C1=O (stereo not given)
Screen / compound no.,1,2,3,4,5,6
DT40 TDP1 CPT,?,-28%,?,-12%,?,-13%
uPA generation,-4%,1%,-2%,.,-28%,0%
TDP1 block,10%,5%,2%,2%,-8%,3%
miR-21 reporter,-6%,-16%,-10%,.,.,-1%
DT40 TDP1 no CPT,13µM*,?,?,-4%,?,-14%

[7] Cc1ccc(C(=O)Nc2nnc(-c3ccco3)o2)cc1C
[8] COc1ccccc1C(=O)Nc1nnc(-c2ccc3c(c2)CCCC3)o1
[9] Cc1cccc(C(=O)Nc2nnc(-c3ccco3)o2)c1
[10] COc1ccc(NC(=O)CCc2nnc3n(Cc4ccccc4Cl)c(=O)c4ccccc4n23)cc1
[11] CN1CCN(CCCNC(=O)CCc2nnc3n(Cc4ccccc4Cl)c(=O)c4ccccc4n23)CC1
[12] Cc1ccc(NC(=O)CCc2nnc3n(CC(C)C)c(=O)c4ccccc4n23)cc1C
Screen / compound no.,7,8,9,10,11,12
DT40 TDP1 CPT,23µM*,?,23µM*,3.3µM*,-18%,26µM*
uPA generation,-6%,?,3%,.,7%,.
TDP1 block,5%,11%,2%,-1%,5%,1%
miR-21 reporter,-32%,-25%,-3%,-2%,5%,-1%
DT40 TDP1 no CPT,15µM*,23µM*,10µM*,3.3µM*,0%,23µM*

[13] O=C(CCc1nnc2n(Cc3ccccc3Cl)c(=O)c3ccccc3n12)Nc1ccc(F)c(F)c1
[14] CN1CC(=O)N(CC(=O)Nc2ccc(Cl)c(C(F)(F)F)c2)C1=O
[15] CCCN(C(=O)c1ccc(-n2cncn2)c([N+](=O)[O-])c1)C1CCS(=O)(=O)C1 (stereo not given)
[16] CC(C)C[C@H](NC(=O)c1nc[nH]c1C(=O)NCC(=O)OCc1ccccc1)C(=O)OC(C)(C)C
[17] Cc1sc(NC(=O)CSC2=NCCS2)nc1-c1ccccc1
[18] CC(=O)N1CC(=O)N=C1SCC(=O)Nc1nc(-c2ccccc2)c(-c2ccccc2)s1
Screen / compound no.,13,14,15,16,17,18
DT40 TDP1 CPT,23µM*,-4%,-11%,?,-23%,18µM*
uPA generation,.,3%,13%,?,-6%,-7%
TDP1 block,-2%,2%,2%,.,4%,5%
miR-21 reporter,0%,-3%,.,3%,5%,22%
DT40 TDP1 no CPT,21µM*,-24%,15%,?,?,13µM*

# Along the list, quoted from above.
# DT40 TDP1 no CPT, entries 5 to 15 → ?, -14%, 15µM*, 23µM*, 10µM*, 3.3µM*, 0%, 23µM*, 21µM*, -24%, 15%

# (further entries)
[19] CCC(=O)Nc1cc(=O)[nH]c2nc(-c3ccc(Cl)cc3)nn12
[20] Cc1ccc(Nc2nc(Nc3ccc(C)cc3)nc(SC3=NCCS3)n2)cc1
[21] Clc1ccccc1NCSC1=NCCS1
[22] Cc1ccccc1Nc1nc(Nc2ccccc2C)nc(SC2=NCCS2)n1
[23] Cc1ccc(NC(=O)C2CCCN2S(=O)(=O)c2cccc3cccnc23)cc1 (stereo not given)
[24] O=C(Nc1cccc(F)c1)C1CCCN1S(=O)(=O)c1cccc2cccnc12 (stereo not given)
[25] Cc1ccc(NC(=O)C2CCCN2S(=O)(=O)c2ccc3nc(-c4ccccc4)[nH]c3c2)cc1F (stereo not given)
[26] Cc1ccc(NC(=O)C2CCCN2S(=O)(=O)c2cccc3cccnc23)cc1C (stereo not given)
[27] O=C(Nc1ccc(C(F)(F)F)cc1)C1CCCN1S(=O)(=O)c1cccc2cccnc12 (stereo not given)
Screen / compound no.,19,20,21,22,23,24,25,26,27
DT40 TDP1 CPT,?,?,-29%,23µM*,?,18µM*,18µM*,?,?
uPA generation,0%,-30%,-7%,-13%,.,11%,.,.,.
TDP1 block,5%,11%,.,12%,2%,-1%,-3%,-1%,0%
miR-21 reporter,-1%,20%,.,21%,-13%,-5%,-2%,0%,24%
DT40 TDP1 no CPT,18µM*,18µM*,-29%,21µM*,?,?,10µM*,21µM*,23µM*

# Compounds 19 through 20 of the list above:
[19] CCC(=O)Nc1cc(=O)[nH]c2nc(-c3ccc(Cl)cc3)nn12
[20] Cc1ccc(Nc2nc(Nc3ccc(C)cc3)nc(SC3=NCCS3)n2)cc1
Screen / compound no.,19,20
DT40 TDP1 CPT,?,?
uPA generation,0%,-30%
TDP1 block,5%,11%
miR-21 reporter,-1%,20%
DT40 TDP1 no CPT,18µM*,18µM*
